# According to PubChem BioAssay AID624256 (NMMLSC, 2012):
# The list shows a part of the results, in another mix than the full data. Some salts and complexes are drawn in separate pieces, as the source files them; their charges need not balance. Active and inactive are the calls of the source.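 How the source made its calls: active means normalized GFP-positive differentiation at or above the plate's own cutoff, the solvent-only control mean plus 3 SD; inconclusive means no clear call, values can overlap the other calls; inactive means the rest.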
# Test: HoxA9-arrested leukemia cell differentiation promoters – flow cytometry, MLPCN library, primary screen (AID 624256)
# Conditions: ER-HoxA9 myeloid progenitors, lysozyme-GFP differentiation, at 10 µM
row,SMILES,outcome
1,CCOC(=O)Nc1ccc([As](=O)(O)O)c(O)c1,inactive
2,CC1CCNP(=O)(N(CCCl)CCCl)O1 (stereo unspecified),inactive
3,COP(=O)(OC)N1CC1c1ccccc1 (stereo unspecified),inactive
4,CCCCOc1ccc(C(=O)NCC2(N3CCCCC3)CCCCC2)cc1OC,inactive
5,CP(=S)(Nn1cnnc1)Oc1ccccc1 (stereo unspecified),inactive
6,CCOC(=O)Nc1cccc([As](=O)(O)O)c1,inactive
7,COc1ccccc1OP(C)(=O)Nc1ccccc1 (stereo unspecified),inactive
8,O=P(Nc1ccccn1)(c1cccc2ccccc12)c1cccc2ccccc12,inactive
9,Cc1cc(SC(NC=O)C(Cl)(Cl)Cl)ncn1 (stereo unspecified),inactive
10,O=[N+]([O-])c1ccc(Nc2ccc(Oc3ccc([N+](=O)[O-])cc3[N+](=O)[O-])cc2)c([N+](=O)[O-])c1,inactive
11,CP(=O)(Nc1ccccc1Br)Oc1ccccc1 (stereo unspecified),inactive
12,CP(=O)(Oc1ccccc1)OC(c1ccccc1)C(F)(F)F (stereo unspecified),inactive
13,COC(=O)C1(C)COP(=O)(N2CCCC2)OC1 (stereo unspecified),inactive
14,COP1(=S)c2c(C)nn(CCC#N)c2N=C(c2ccc(F)cc2)N1C (stereo unspecified),inactive
15,Cc1ccc(Nc2c([N+](=O)[O-])cc([N+](=O)[O-])cc2[N+](=O)[O-])cc1,inactive
16,Cc1cccc(C)c1OP(C)(=O)Nc1ccc(SC(F)(F)F)cc1 (stereo unspecified),inactive
17,CP(=O)(Nc1ccc(SC(F)(F)F)cc1)Oc1ccc(Cl)cc1 (stereo unspecified),inactive
18,Cc1cc(C)cc(OP(C)(=O)Nc2ccc(SC(F)(F)F)cc2)c1 (stereo unspecified),inactive
19,O=C(Nc1ccncc1[N+](=O)[O-])c1ccc([N+](=O)[O-])cc1[N+](=O)[O-],inactive
20,O=C(COc1ccccc1)OC1CN2CCC1CC2 (stereo unspecified),inactive
21,CP(=O)(NC(=O)Nc1ccccc1)Oc1ccccc1 (stereo unspecified),inactive
22,CCc1ccc(OP(C)(=O)N2CCN(c3ccc([N+](=O)[O-])cc3)CC2)cc1 (stereo unspecified),inactive
23,CSc1ccc(Nc2c([N+](=O)[O-])cc([N+](=O)[O-])cc2[N+](=O)[O-])cc1,inactive
24,CCOP(C)(=S)SCC(=O)NC(C)C(=O)O (stereo unspecified),inactive

row,SMILES,outcome
1,O=C(OC1CN2CCC1CC2)c1cccc([N+](=O)[O-])c1 (stereo unspecified),inactive
2,CCOC(=O)c1ccc(NC(=O)C(C)(CCl)SC)cc1 (stereo unspecified),inactive
3,CCOC(=O)c1ccc(NP(C)(=O)Oc2ccc(OC)cc2)cc1 (stereo unspecified),inactive
4,O=[N+]([O-])c1cc([N+](=O)[O-])c(O)c([N+](=O)[O-])c1.c1ccc(Oc2ccncc2)cc1,inactive
5,CCC(C)N(CC(C)C)C(=S)SC(NC(C)=O)C(Cl)(Cl)Cl (stereo unspecified),inactive
6,CP(=O)(Nc1ccccn1)Oc1ccc(Cl)cc1 (stereo unspecified),inactive
7,COc1ccc(C2=NCC(CBr)S2)cc1 (stereo unspecified),inactive
8,COc1ccc(OP(C)(=O)Nc2ccc(Br)cc2)cc1 (stereo unspecified),inactive
9,CCN(CC)CC(O)COC(=O)C(O)(c1ccccc1)C1CCCCC1 (stereo unspecified),inactive
10,CCc1ccc(OP(C)(=O)Nc2cccnc2)cc1 (stereo unspecified),inactive
11,CP(=O)(Oc1ccccc1)N1CCOC1=O (stereo unspecified),inactive
12,O=C(OCCCN1CCCC1)C(O)(c1ccccc1)C1CCCCC1 (stereo unspecified),inactive
13,O=[N+]([O-])c1cccc2n[nH]nc12,inactive
14,CC(=O)N1C2C3N(C(C)=O)C1C1N(C(C)=O)C(C(N1C(C)=O)N3C(C)=O)N2C(C)=O,inactive
15,COc1ccccc1OP(C)(=O)Nc1c(C)n(C)n(-c2ccccc2)c1=O (stereo unspecified),inactive
16,CP(=O)(Nc1ccc(Cl)cc1)Oc1ccc(F)cc1 (stereo unspecified),inactive
17,CCN(/C(=N/P(=O)(N1CCOCC1)N1CCOCC1)N1CCOCC1)c1ccc(OC)cc1,inactive
18,C[N+]1=C2C=CC=CC=C2SC12C([N+](=O)[O-])=CC([N+](=O)[O-])=C[C-]2[N+](=O)[O-] (stereo unspecified),inactive
19,COc1ccccc1OP(C)(=O)Nc1ccccc1Br (stereo unspecified),inactive
20,CC(C)(C)c1ccc(OP(C)(=O)O)cc1,inactive
21,Nc1ccc([As](=O)(O)c2ccc(N)cc2)cc1,inactive
22,CC1CCN(C(=O)Oc2c(Cl)cc(Cl)c3cccnc23)CC1,inactive
23,c1cc(-c2nn[nH]n2)ccc1-c1nn[nH]n1,inactive
24,CN(C)C(=O)OCCc1n(C)cc[n+]1C,inactive

row,SMILES,outcome
1,CC(C)c1nc(Nc2ccccc2)n(P(=O)(N(C)C)N(C)C)n1,inactive
2,CN(C)C(=O)c1c([N+](=O)[O-])cc([N+](=O)[O-])cc1[N+](=O)[O-],inactive
3,CC(C)=N/N=C(\N)N[N+](=O)[O-],inactive
4,O=P1(N(CCCl)CCCl)OCCCS1 (stereo unspecified),inactive
5,CP(=O)(OC12CC3CC(CC(C3)C1)C2)OC12CC3CC(CC(C3)C1)C2,inactive
6,O=C(Nc1cc([As](=O)(O)O)ccc1O)c1ccccc1,inactive
7,CCOC(=O)c1ccc(NP(C)(=O)Oc2ccc(Cl)cc2)cc1 (stereo unspecified),inactive
8,O=[N+]([O-])c1ncn(CCn2ncnc2[N+](=O)[O-])n1,inactive
9,CC(C)(C)C(=O)NC(Sc1ccncn1)C(Cl)(Cl)Cl (stereo unspecified),inactive
10,O=C(O)CNc1ccc([As](=O)(O)O)cc1,inactive
11,COC(=O)C1(C)COP(=O)(Nc2ccccc2)OC1 (stereo unspecified),inactive
12,O=[N+]([O-])c1cccc(NC2=NCC(CBr)S2)c1 (stereo unspecified),inactive
13,O=P(Nc1nc2ccc(Cl)cc2s1)(c1ccccc1)c1ccccc1,inactive
14,Cc1cc(C)cc(OP(C)(=O)Nc2cccc(C(F)(F)F)c2)c1 (stereo unspecified),inactive
15,CN(C)P(=O)(N(C)C)n1c(Nc2ccccc2)nnc1-c1ccccc1,inactive
16,O=C1C(O)=C([N+](=O)[O-])C(=O)C(O)=C1[N+](=O)[O-],inactive
17,CCCC1OP(N)(=O)OCC1CC (stereo unspecified),inactive
18,CC(=O)Nc1ccc([As](=O)(O)O)cc1,inactive
19,O=C(O)c1ccccc1[As](=O)(O)O,inactive
20,COc1ccc(OP(C)(=O)Nc2ccccc2Br)cc1 (stereo unspecified),inactive
21,COc1ccccc1OP(C)(=O)Nc1ccc(C)c(C)c1 (stereo unspecified),inactive
22,Cc1ccc(NP(=O)(Oc2ccccc2F)Oc2ccccc2F)nc1,inactive
23,CN(C(=O)Cc1ccc(Cl)c(Cl)c1)[C@H]1CCCC[C@@H]1N1CCCC1,inactive
24,Cc1cc(SC(NC(=O)c2ccc(F)cc2)C(Cl)(Cl)Cl)ncn1 (stereo unspecified),inactive

row,SMILES,outcome
1,CCOP(=O)(Nc1ccccc1)OCC,inactive
2,CP(=O)(Nc1ccc(Cl)cc1Cl)Oc1ccccc1 (stereo unspecified),inactive
3,CCCCCCCCCCCCCCCC1C[N+](C)(C)CCOP(C)(=O)O1 (stereo unspecified),inactive
4,CP(=O)(OCCOc1ccccc1)OCCOc1ccccc1,inactive
5,Nc1cccc2ccc([As](=O)(O)O)cc12,inactive
6,CCN(N=Nc1nonc1N)c1nonc1N,inactive
7,Cc1ccc(N/C(=N/P(=O)(N2CCOCC2)N2CCOCC2)N2CCOCC2)cc1,inactive
8,CN(C(=O)Cc1ccc(Cl)c(Cl)c1)[C@H]1CCCC[C@H]1N1CCCC1,inactive
9,COc1ccccc1OP(C)(=O)Nc1ccc(Br)cc1 (stereo unspecified),inactive
10,NC(=O)c1cc([N+](=O)[O-])cc([N+](=O)[O-])c1N,inactive
11,CN1CCCC(OC(=O)C(c2ccccc2)c2ccccc2)C1 (stereo unspecified),inactive
12,Clc1ccc(Cl)c(NC2=NCC(CBr)S2)c1 (stereo unspecified),inactive
13,CN(C)CCOC(=O)C(O)(c1ccccc1)C1CCCC1 (stereo unspecified),inactive
14,Cc1ccc(OP(=O)(Nc2nccs2)Oc2ccc(C)cc2)cc1,inactive
15,COc1ccccc1OP(=O)(Nc1ccc(C)cn1)Oc1ccccc1OC,inactive
16,COc1ccc(OP(C)(=O)Nc2ccccn2)cc1 (stereo unspecified),inactive
17,O=C(NC(Sc1ccncn1)C(Cl)(Cl)Cl)c1ccccc1 (stereo unspecified),inactive
18,Oc1ccccc1CNc1ccccn1,inactive
19,Cc1c(NP(C)(=O)Oc2ccc(C(C)C)cc2)c(=O)n(-c2ccccc2)n1C (stereo unspecified),inactive
20,Nc1cc(N)c2nonc2c1[N+](=O)[O-],inactive
21,CC(C)CC(=O)NC(Sc1ccc(Cl)cc1)C(Cl)(Cl)Cl (stereo unspecified),inactive
22,O=[N+]([O-])c1cc([N+](=O)[O-])c(Nc2ccccn2)c([N+](=O)[O-])c1,inactive
23,O=[N+]([O-])C1C(O)C(O)C([N+](=O)[O-])C(O)C1O (stereo unspecified),inactive
24,COc1ccccc1OP(C)(=O)Nc1ccc(C)cc1C (stereo unspecified),inactive

row,SMILES,outcome
1,CP(=O)(Nc1ccccn1)Oc1ccccc1 (stereo unspecified),inactive
2,CCOc1ccc(C2=NCC(CBr)S2)cc1 (stereo unspecified),inactive
3,O=[N+]([O-])c1cc([N+](=O)[O-])c(Nc2ccc(Cl)cc2)c([N+](=O)[O-])c1,inactive
4,O=P1(Nc2nc3ccc(Cl)cc3s2)COc2ccccc2O1 (stereo unspecified),inactive
5,CC(C)c1ccc(OP(C)(=O)Nc2ccc(SC(F)(F)F)cc2)cc1 (stereo unspecified),inactive
6,CC(C)(C)C(=O)NC(Sc1ccccc1)C(Cl)(Cl)Cl (stereo unspecified),inactive
7,CP(=O)(Nc1ccccc1F)Oc1ccccc1 (stereo unspecified),inactive
8,CCc1cc(O)c([N+](=O)[O-])c(C)c1[N+](=O)[O-],inactive
9,C[C@H]1OP(=O)(Oc2ccccc2)C[C@@H]2O[C@@H]21 (stereo partly specified),inactive
10,C[C@@H]1C=CCP(=O)(Oc2ccccc2)O1 (stereo partly specified),inactive
11,Cc1ccccc1CN(C)C(=O)COC(=O)C(O)(c1ccccc1)c1ccccc1,inactive
12,O=C(OCCN1CCN(CCOCc2ccccc2)CC1)C(O)(c1ccccc1)c1ccccc1,inactive
13,COC(=O)C1(C)COP(=O)(NCc2ccccc2)OC1 (stereo unspecified),inactive
14,O=C(OC1CN2CCC1CC2)c1ccc([N+](=O)[O-])cc1 (stereo unspecified),inactive
15,CC(=O)c1ccc(N2CC2c2ccncc2)cc1 (stereo unspecified),inactive
16,CC(=O)Nc1ccc(Oc2c([N+](=O)[O-])cc([N+](=O)[O-])cc2[N+](=O)[O-])cc1,inactive
17,CC(=O)Nc1ccc([As](=O)(O)O)c(O)c1,inactive
18,COc1ccc2c(c1O)-c1c(O)c(OC)cc3c1[C@H](C2)[N+](C)(C)CC3.O=[N+]([O-])c1cc([N+](=O)[O-])c([O-])c([N+](=O)[O-])c1[O-],inactive
19,Cc1ccc(NP(=O)(Oc2cccc(C)c2)Oc2cccc(C)c2)nc1,inactive
20,CCN(CC)CCCNc1ccccc1[N+](=O)[O-].O=[N+]([O-])c1cc([N+](=O)[O-])c(O)c([N+](=O)[O-])c1,inactive
